Experiments:
[1] = Reactive extraction of 3-HP from clarified fermentation broth into tertiary amine non-polar phase with co-solvents; format: physicochemical
Experimental: A fermentation broth obtained from a 10-liter fermentor at the conclusion of a fermentation experiment was heated to 60° C. for one hour as a microorganism kill step, then adjusted to approximately 100 grams per liter of 3-HP (produced by the method described in Common Methods Section, Subsection IIIa), and pH-adjusted to approximately 7.0 with ammonium sulfate. Calcium chloride at 1 M was added as a flocculent to reach a final concentration of about 8.2 g/L. Thereafter the pH was adjusted to a pH of approximately 2.0 using sulfuric acid. Thereafter a volume of this modified fermentation broth was centrifuged at approximately 3,200 g for 5 minutes to yield a clarified broth and a pellet, which was discarded.
Portions of the clarified broth were then subjected to reactive extraction by mixing with a tertiary amine non-polar phase comprising various co-solvents. After mixing, aqueous and amine non-polar phases were allowed to separate, and the amine non-polar phase was removed from the aqueous phase, which was subjected to analysis for 3-HP concentration by HPLC (see method in Common Methods Section). Amines included Alamine 336, described above, and tripentylamine. Table 40 provides a summary of the single pass extraction efficiency into the respective amine non-polar phase solutions, each respectively calculated based on the difference between the starting 3-HP in the portion and the 3-HP in the raffinate (aqueous phase after extraction).

[2] = test system: E. coli; format: cell-based; conditions: increase of 3-HP MIC over BW25113 in M9 without supplements; M9 media with the named supplement(s), aerobic
Experimental: For MIC evaluations, the final results are expressed in chemical agent concentrations determined by analysis of the stock solution by HPLC (i.e., see Subsection IIIb).
The minimum inhibitory concentration (MIC) was determined aerobically in a 96 well-plate format. […] Media supplements were added according to levels reported in the Supplements Table, where specified. Overnight cultures of strains were grown in triplicate in 5 mL LB (with antibiotic where appropriate). A 1% (v/v) inoculum was introduced into a 5 ml culture of M9 minimal media.

SMILES: O=C(O)CCO [3-HP, 3-hydroxypropionic acid]
- % 3HP extracted (Total; single pass extraction efficiency) ([1]; sample 1: Alamine 336 with Butanol): 60.60%
- % 3HP extracted (Total; single pass extraction efficiency) ([1]; sample 2: Tripentylamine with Butanol): 58.39%
- % 3HP extracted (Total; single pass extraction efficiency) ([1]; sample 3: Tripentylamine with p-Xylene): 23.91%
- % 3HP extracted (Total; single pass extraction efficiency) ([1]; sample 4: Tripentylamine with Methyl ethyl ketone): 67.47%
- % 3HP extracted (Total; single pass extraction efficiency) ([1]; sample 5: Tripentylamine with Methyl tert-butyl ether): 37.53%

SMILES: NCCCCCN [Cadaverine (C)]
- % Increase Over Control [2]: 27%

SMILES: N[C@@H](CCO)C(=O)O [Homoserine (B)]
- % Increase Over Control [2]: 27%

SMILES: NCCCCN [Putrescine (C)]
- % Increase Over Control [2]: 9%

SMILES: NCCCCNCCCN [Spermidine (C)]
- % Increase Over Control [2]: 45%
